Laboratory results reported in ChEMBL document CHEMBL1125505, “Nucleosides and nucleotides. 112. 2-(1-Hexyn-1-yl)adenosine-5'-uronamides: a new entry of selective A2 adenosine receptor agonists with potent antihypertensive activity” (J Med Chem, 1992).

Chains of the proteins cited; added tags and fusions are not shown. Lines headed by an entry give the natural chain unless they say otherwise; changes in a name come on top.
UniProt P29276: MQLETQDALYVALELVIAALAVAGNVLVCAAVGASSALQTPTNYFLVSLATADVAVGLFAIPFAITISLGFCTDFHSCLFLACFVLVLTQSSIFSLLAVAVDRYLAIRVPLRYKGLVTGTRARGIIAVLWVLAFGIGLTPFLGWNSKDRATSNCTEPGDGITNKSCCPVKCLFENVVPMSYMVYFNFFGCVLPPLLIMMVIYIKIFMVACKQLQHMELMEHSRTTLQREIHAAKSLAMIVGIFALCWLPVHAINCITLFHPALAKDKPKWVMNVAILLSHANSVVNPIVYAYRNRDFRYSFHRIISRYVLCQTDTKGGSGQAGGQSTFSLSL
UniProt P30543: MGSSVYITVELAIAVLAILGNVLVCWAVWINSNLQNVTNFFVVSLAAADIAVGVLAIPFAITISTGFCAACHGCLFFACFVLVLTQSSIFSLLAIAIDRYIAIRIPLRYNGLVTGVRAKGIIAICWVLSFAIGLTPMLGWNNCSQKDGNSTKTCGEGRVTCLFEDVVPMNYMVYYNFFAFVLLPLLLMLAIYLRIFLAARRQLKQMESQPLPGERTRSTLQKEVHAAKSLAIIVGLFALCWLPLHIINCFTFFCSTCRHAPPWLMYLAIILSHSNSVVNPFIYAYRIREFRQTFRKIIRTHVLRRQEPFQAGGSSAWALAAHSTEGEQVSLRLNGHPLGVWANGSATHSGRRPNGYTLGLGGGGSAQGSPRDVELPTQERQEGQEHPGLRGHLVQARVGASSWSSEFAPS

Biological target: Adenosine A2 receptor (Rattus norvegicus, UniProt P29276+P30543)
Type: protein assay

Question: How did the Ki turn out when `CCCCC#Cc1nc(N)c2ncn([C@@H]3O[C@H](CO)[C@@H](O)[C@H]3O)c2n1` was run?
Answer: The Ki was 2.4 nM.
